Test [1] deals with bovine pancreatic kallikrein (bovine). Description: enzyme inhibition kinetics, PFR-AMC substrate.
Test [2] has as its target human tissue kallikrein (human) (UniProt P06870). Description: enzyme inhibition kinetics, PFR-AMC substrate.
Test [3] deals with bovine trypsin (bovine) (UniProt P00760). Description: enzyme inhibition kinetics, GPK-AMC substrate.
The target in test [4] is bovine chymotrypsin (bovine) (UniProt P00766). Kind of test: enzyme inhibition kinetics.
In test [5] the target is bovine trypsin (bovine) (UniProt P00760). Kind of test: enzyme inhibition kinetics.
Test [6] addresses bovine pancreatic kallikrein (bovine). Kind of test: enzyme inhibition kinetics.
The target in test [7] is human tissue kallikrein (human) (UniProt P06870). Description: enzyme inhibition kinetics.
A further test deals with human factor Xa (human) (UniProt P00742). Kind of test: enzyme inhibition assay, aprotinin at 31 µM.
Another test concerns the target human plasmin (human) (UniProt P00747). Kind of test: enzyme inhibition kinetics.

In patent US6583108B1, “Human bikunin” (Bayer Corporation, dated 2003) one finds Ki and % inhibition data, which are given here for two substances.

On to aprotinin (Trasylol), for which the Ki in test [1] came out at 0.02 nM; in test [2], 0.004 nM; with bovine trypsin (bovine) [3], 0.8 nM; in [4], 0.9 nM; with bovine trypsin (bovine) [5], 0.8 nM; in test [6] it was 0.02 nM. Besides, the Ki in test [7] came out at 0.004 nM.

“aprotinin (Trasylol) (other; other documents disagree on this pair)”: the % inhibition with human factor Xa (human) came out at 5%. In addition, the Ki with human plasmin (human) came to 13 nM.

What is called Ki is a measure of affinity in units of concentration, obtained from inhibition or displacement. Usually % inhibition stands for the percentage by which the read-out fell short of the control. Read a low % inhibition as a response near the control.
